## Ab-14 light chain CDR variants: yeast mating affinities

Target peptide (SARS-CoV-2 spike, HR2 region): PDVDLGDISGINAS

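The starting antibody came from a phage panning campaign against this peptide. The library (AAYL50) carries one to three amino acid substitutions per variant, with no insertions or deletions. The assay is AlphaSeq: two haploid yeast populations carry antibody and antigen on their surface. Binding brings cells together so that they mate, and sequencing counts the barcode pairs among the diploids. Scores were corrected for input abundance and mapped to Kd with protein pairs of known affinity run in the same pool. Mating was done three times.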

Each scFv is VH, three GGGGS repeats, VL, as in the parent Ab-14, and differs from it in the CDRs of the light chain only.
VH: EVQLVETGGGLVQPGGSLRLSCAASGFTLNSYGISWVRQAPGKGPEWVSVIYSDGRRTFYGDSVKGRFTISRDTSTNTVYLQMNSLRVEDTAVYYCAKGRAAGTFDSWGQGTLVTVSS
VL: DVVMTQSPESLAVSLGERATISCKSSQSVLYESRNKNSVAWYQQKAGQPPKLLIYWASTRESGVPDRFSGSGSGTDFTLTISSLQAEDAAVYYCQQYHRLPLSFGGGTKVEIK

Each variant is given by its three light chain CDRs, as the data file delimits them; those of the parent are KSSQSVLYESRNKNSVA, WASTRES, QQYHRLPLS. Numbers give log10(Kd / nM), so 0 is 1 nM and 3 is 1 µM. Smaller is tighter. "ND" means that the variant was in the library but no mating with the target was seen in that replicate; the authors take this as a sign of poor binding, and no number exists. In this assay the parent's reference entry averaged 0.65; its copy inside this library read 1.68.

CDR-L1,CDR-L2,CDR-L3,"log10 Kd, replicates",control signals
KSHQSVLYESRNKNSQN,WASTRES,QQYHRLPLS,ND ND ND,0 of 9
KSSQWVLYESRNKDSVA,WASTRRS,QQYHRLPLS,ND ND ND,0 of 9
KSRQSVLFESRNKNSVA,WASTRES,QQKHRLPLS,1.35 1.29 1.11,0 of 9
KMSQSVLYESRNKNSKA,MASTRES,QQYHRLPLS,ND ND ND,0 of 9
KSSQSVLYESRNKNSVA,FAYTRES,QQYHRLPLS,1.97 1.98 2.21,2 of 9 (4.34)
KSSQSVLYESREKHSVA,WATTRES,QQYHRLPLS,ND ND 4.03,4 of 9 (5.15)
KSSQSVLYESINKNSVA,WASLRES,QQYSRLPLS,0.81 1.03 0.24,0 of 9
KSYQSQLYWSRNKNSVA,WASTRES,QQYHRLPLS,1.67 1.67 1.70,4 of 9 (3.78)
KSSISVLYESRNKNSVA,WASTRES,QQGHSLPLS,6.54 4.01 4.24,2 of 9 (5.77)
KSSQSVLYESREKNSVA,WASRRES,QQYHKLPLS,4.84 4.05 3.38,1 of 9 (4.17)
KSSQSVLYESYNKNNEA,WASTRES,QQYHRLPLS,3.89 3.59 ND,0 of 9
KSSQSVLHESRNKKSVA,WASTRES,EQYHRLPLS,1.77 1.48 1.24,0 of 9
NSSQSVLYESRNKNSVY,WASTRES,QQYHRLPPS,ND ND ND,1 of 9 (2.53)
KSSQSVPYESQNKNSVA,WASTRER,QQYHRLPLS,0.31 0.57 0.61,0 of 9
KSSQSVLYESRNKNSVA,WASTRES,ERYHRLCLS,ND ND ND,0 of 9
KSSQSVAQESRNKNSVA,WASLRES,QQYHRLPLS,0.86 1.29 0.89,2 of 9 (4.27)
KSSQFVLYESRNKNSVA,WASTGES,QQYHRLPES,ND ND ND,0 of 9
KSSQSVLYESRNKNSVH,WASTRES,QQVHRLPLS,ND ND ND,0 of 9
KYSQSVLYESRDKNSVA,WASTRES,QQYHRLPLS,0.02 1.08 -0.09,0 of 9
KSSQSVLYESRNKNSVA,WTSTRES,QQYHRLPLS,0.90 1.07 1.07,1 of 9 (5.95)
MSSQSVLYESRNKNSVA,WALTRES,VQYHRLPLS,ND ND ND,1 of 9 (3.34)
KSSQNVLYTSRNKNSVA,WASTRES,QQYHRLPLG,1.92 2.21 2.30,2 of 9 (3.95)
KSSQSVLYESRNQNSVA,WASTRES,LQYHRLPGS,5.35 4.12 3.54,2 of 9 (2.60)
KESQSVLYESRNKNSVA,WACIRES,QQYHRLPLS,2.06 2.13 2.61,6 of 9 (4.30)
HSSQMVLYESRNKNSVA,WASTRES,QQYHRTPLS,ND 3.46 ND,0 of 9
KSSQNHLYESRNKNSVA,WASTRES,QQYHRLPLS,1.24 1.34 1.37,3 of 9 (4.86)
KSSQSVLGESRNKNSVA,WASTREM,QQYHRLSLS,1.83 1.95 2.18,4 of 9 (4.10)
KSSQSVLYESRNKNSKH,WASTDES,QQYHRLPLS,ND ND ND,2 of 9 (4.31)
KSSQSVLYNSRNKNSVA,WASTRES,PQYHRLPLS,ND 3.26 ND,4 of 9 (4.25)
KSSQSVLYESRNKNSVA,PASTRES,QQYHRLPPS,ND ND ND,2 of 9 (4.53)
KSSQSVLYEQRNKNSVA,WISTRES,QQYHALPLS,4.05 3.84 4.90,1 of 9 (4.42)
KSSQSVLYESRNGNSVA,WASCRES,QQYHRLPLS,1.16 1.17 1.18,5 of 9 (4.72)
KSSQSVLYHSRNKNEVW,WASTRES,QQYHRLPLS,3.97 ND ND,2 of 9 (4.22)
KSSQSVLYESRNKNSVA,WASTREA,QQGHRLPLS,3.37 ND ND,2 of 9 (4.30)
KSSQSVLYESRNKCSVA,WASTRES,QEYHRLQLS,2.82 ND ND,0 of 9
KSSKSGLYESRNKNSVA,WASTREI,QQYHRLPLS,1.01 1.24 1.11,2 of 9 (3.57)
KMSQSVAEESRNKNSVA,WASTRES,QQYHRLPLS,-0.26 0.05 -0.11,0 of 9
KSSQSVLYESRNKNQVA,WASTRPL,QQYHRLPLS,3.98 4.96 ND,2 of 9 (4.08)
KQSQSNLYESRNKNSVA,WASTRES,QQYHRMPLS,2.18 2.26 2.31,0 of 9
KSSQSVLYESRNMNSVA,WASYRES,QQLHRLPLS,ND ND ND,0 of 9
ISSQSVLYESRNKNSVA,WASERAS,QQYHRLPLS,1.69 1.93 1.74,4 of 9 (4.18)
KSSQSVLYESRNKNSVA,WASGRHS,QQYIRLPLS,4.54 ND ND,5 of 9 (4.55)
KSSQSVLYESRNKNSVA,WASTREL,QQYHHLHLS,4.12 ND ND,0 of 9
KSDQSVLYESRNKSSVA,WASTREL,QQYHRLPLS,0.96 1.15 1.23,0 of 9
KSSQGVLYESRNKNSVA,WASTRVW,QQYHRLPLS,0.97 1.27 1.13,1 of 9 (2.46)
KSSQSVLYESRNKNSVA,WASTRES,QQYHSMVLS,0.41 0.77 0.82,1 of 9 (2.57)
KSSQSVLYEARNKNSVF,HASTRES,QQYHRLPLS,ND ND ND,0 of 9
KSSQSVLYESRNKNSVA,WASRRES,VHYHRLPLS,1.81 1.79 1.75,3 of 9 (4.00)

8 of these entries, quoted again:

CDR-L1	CDR-L2	CDR-L3	log10 Kd, replicates	control signals
KMSQSVLYESRNKNSKA	MASTRES	QQYHRLPLS	ND ND ND	0 of 9
KSSQSVLYESRNKNQVA	WASTRPL	QQYHRLPLS	3.98 4.96 ND	2 of 9 (4.08)
MSSQSVLYESRNKNSVA	WALTRES	VQYHRLPLS	ND ND ND	1 of 9 (3.34)
KSSQSVLGESRNKNSVA	WASTREM	QQYHRLSLS	1.83 1.95 2.18	4 of 9 (4.10)
KSSQSVLYESYNKNNEA	WASTRES	QQYHRLPLS	3.89 3.59 ND	0 of 9
KSSQSVLYESRNKNSVA	PASTRES	QQYHRLPPS	ND ND ND	2 of 9 (4.53)
KSSKSGLYESRNKNSVA	WASTREI	QQYHRLPLS	1.01 1.24 1.11	2 of 9 (3.57)
NSSQSVLYESRNKNSVY	WASTRES	QQYHRLPPS	ND ND ND	1 of 9 (2.53)

Three control strains display no target. For library AAYL50, 18% of the pairings with them gave a signal, with a median of 4.19 and one signal in twenty below 2.99, so weak values seen in few replicates may be background. Also given: how often the same scFv was detected with the empty control strains, with their mean in brackets.

Values reported by Engelhart et al. 2022, doi:10.1038/s41597-022-01779-4 (FLAb copy).